# From patent publication US20170274068A1, “IMMUNOLOGICAL REAGENT” (priority 2014, published 2017)
# System: B16.mOVA cells
# Experiment: Vaccine-mediated protection against melanoma tumor challenge
# Conditions: 25 μg OVA s.c., challenge with 10^4 B16.mOVA cells 7 days later
substance,measurement,value
"OVA: protein antigen OVA used as model antigen, alone",time by which all mice succumbed to disease as a result of tumour formation,≤ 25 days
